From PMC6222802 (Molecules : A Journal of Synthetic Chemistry and Natural …, 2018)

system: SMMC-7721 cells; experiment: cells; details: Homo sapiens, SMMC-7721, 48 h, read-out: IC50, SMMC-7721

Compared with O=C1CCC[C@@H]2[C@H]3CCCN4CCC[C@H](CN12)[C@@H]34 [Compound 1, Sophoridine, reference compound], COC(=O)CCC[C@@H]1[C@H]2CCCN3CCC[C@H](CN1P(=O)(Oc1ccc(Cl)cc1)N(CCCl)CCCl)[C@@H]23 (stereo partly drawn) [Compound 7c] is lower in IC50: greater than 100 µM for the first, 31.7 ± 1.21 µM for the second. The second is the more potent here.

COC(=O)CCC[C@@H]1[C@H]2CCCN3CCC[C@H](CN1P(=O)(Oc1ccc(C)cc1)N(CCCl)CCCl)[C@@H]23 (stereo partly drawn) [Compound 7a] and COC(=O)CCC[C@@H]1[C@H]2CCCN3CCC[C@H](CN1P(=O)(Oc1ccc(OC)cc1)N(CCCl)CCCl)[C@@H]23 (stereo partly drawn) [Compound 7b] are within error of each other in IC50: 60.8 ± 2.34 µM for the first, 65.2 ± 2.67 µM for the second.

First: COC(=O)CCC[C@@H]1[C@H]2CCCN3CCC[C@H](CN1P(=O)(Oc1ccc([N+](=O)[O-])cc1)N(CCCl)CCCl)[C@@H]23 (stereo partly drawn) [Compound 7d]
Second: COC(=O)CCC[C@@H]1[C@H]2CCCN3CCC[C@H](CN1P(=O)(Oc1ccccc1)N(CCCl)CCCl)[C@@H]23 (stereo partly drawn) [Compound 7e]
The IC50 of the first is 2.1-fold lower: 36.5 ± 2.45 µM for the first, 77.9 ± 2.78 µM for the second.
